In patent publication US8476025B2, “ATM-dependent phosphorylation of Sp1 is involved in the cellular response to DNA damage and enhances cellular survival after DNA damage” (Philadelphia Health and Education Corporation, priority 2007, dated 2013):

Test system: Sp1 phosphorylation at Ser101
Details: for Detection of DNA damage by phospho-serine 101 Sp1 antibody compared with γH2AX: U2OS immunoblot; for Sp1 phosphorylation at Ser101: varying concentrations, harvested 24 hours after treatment

SMILES | Detection of DNA damage by phospho-serine 101 Sp1 antibody compared with γH2AX | Sp1 phosphorylation at Ser101 (U2OS) | H2AX phosphorylation (U2OS, 24 hours after exposure)
COc1cccc2c1C(=O)c1c(O)c3c(c(O)c1C2=O)C[C@@](O)(C(=O)CO)C[C@@H]3O[C@H]1C[C@H](N)[C@H](O)[C@H](C)O1 [doxorubicin] | lower doses of damaging agent than γH2AX | – | –
COc1cc([C@@H]2c3cc4c(cc3[C@@H](O[C@@H]3O[C@@H]5CO[C@@H](C)O[C@H]5[C@H](O)[C@H]3O)[C@H]3COC(=O)[C@H]23)OCO4)cc(OC)c1O [etoposide] | lower doses of damaging agent than γH2AX | – | –
NC(=O)NO [hydroxyurea] | lower doses of damaging agent than γH2AX | observed | –
CN(Cc1cnc2nc(N)nc(N)c2n1)c1ccc(C(=O)N[C@@H](CCC(=O)O)C(=O)O)cc1 [methotrexate] | lower doses of damaging agent than γH2AX | observed | no visualization
